# Test results from PubChem BioAssay AID624483 (NMMLSC, 2012).
# This is a selection; strong and weak results do not stand in their true shares. Active and inactive are the calls of the source. No stated cut-off is given here; in the data, active means fluorescence intensity above about 16000; inconclusive means no clear call, values can overlap the other calls; inactive means below that.
# Assay: counter-screen for toxin protease inhibitors: compound fluorescence, primary screen, artefact control for toxin protease inhibitor project, biochemical, multiplex microsphere, HTS (AID 624483); further: test concentration not given here
# Details: compound autofluorescence counterscreen, microsphere flow cytometry; hits give high values
row,SMILES,fluorescence intensity
1,CCC(=O)N(c1ccccc1)C1(COC)CCN(CCc2cccs2)CC1,inactive: 4720
2,CCC(=O)N(c1ccccc1)C1(COC)CCN(CCn2nnn(CC)c2=O)CC1,inactive: 5360
